Read-outs that look alike come from different tables or passages of the source.
Tests used:
test subject [1] = experiment: Bicycle ergometer test at 125 W: effect of active ingredients on heart rate, oxygen demand and heat production (Example 1a); format: in vivo, human; conditions: for Average heart rate after: 10-minute test at 125 W immediately after administration
test subject [2] = experiment: 30-minute bicycle ergometer test at 125 W: test substances alone or with caffeine/amino acid/vitamin product A (Example 6); format: in vivo, human; conditions: alone or with product A as labelled, 30-minute test at 125 W
[3] = Homo sapiens, 10 min, 1 mg in 20 ml of water, 10-minute test at 125 W, from change in humidity, read-out: Heat production (deviation from the average of all the tests)
[4] = Homo sapiens, 10 min, 1 mg in 20 ml of water, 10-minute test at 125 W, read-out: Change in the oxygen demand

`CN(C)CCC=C1c2ccccc2CCc2ccccc21` [amitriptyline] was tested, and the “Average heart rate after” value (test subject [1]; 1 mg in 20 ml of water) was 112.0 per minute, the change in vivo at 1 mg (test subject [1]; [3]) was 13% and the change in vivo at 1 mg (test subject [1]; [4]) was 0%.
`O=C1O[C@H]([C@@H](O)CO)C(O)=C1O` [ascorbic acid] was tested, and the “Effect on heat production (change from control test without test substances)” value (test subject [2]; 500 mg of ascorbic acid) was “+380 kJ” and the “Effect on oxygen demand (change from control test without test substances)” value (test subject [2]; 500 mg of ascorbic acid) was “+19 l”.
For `O=C1CN=C(c2ccccn2)c2cc(Br)ccc2N1` [bromazepam], the “Average heart rate after” value (test subject [1]; 1 mg in 20 ml of water) was 118.2 per minute.
In the case of `Cn1c(=O)c2c(ncn2C)n(C)c1=O` [caffeine], the “Average heart rate after” value (test subject [1]; 25 mg in 20 ml of water) is reported as 97.1 per minute and the change in vivo at 25 mg (test subject [1]; Homo sapiens, 10 min, 25 mg in 20 ml of water, 10-minute test at 125 W) is reported as -26%.
For `CCOC(=O)n1ccn(C)c1=S` [carbimazole], the “Average heart rate after” value (test subject [1]; 5 mg in 20 ml of water) was 104.9 per minute, the change in vivo at 5 mg (test subject [1]; Homo sapiens, 10 min, 5 mg in 20 ml of water, 10-minute test at 125 W, from change in humidity, read-out: Heat production (deviation from the average of all the tests)) was -26% and the change in vivo at 5 mg (test subject [1]; Homo sapiens, 10 min, 5 mg in 20 ml of water, 10-minute test at 125 W, read-out: Change in the oxygen demand) was -30%.
With `CNC1=Nc2ccc(Cl)cc2C(c2ccccc2)=[N+]([O-])C1` [chlordiazepoxide] the “Average heart rate after” value (test subject [1]; 1 mg in 20 ml of water) was 110.2 per minute.
With `CN(C)CC/C=C1/c2ccccc2Sc2ccc(Cl)cc21` [chlorprothixen, chlorprothixene] the “Change in the oxygen demand” value (test subject [1]; 1 mg in 20 ml of water, 10-minute test at 125 W) was 0%, the “Average heart rate after” value (test subject [1]; 1 mg in 20 ml of water) was 112.0 per minute and the “Heat production (deviation from the average of all the tests)” value (test subject [1]; 1 mg in 20 ml of water, 10-minute test at 125 W, from change in humidity) was “+13%”. The “Average heart rate before” value (test subject [1]; 10-minute control test at 125 W before administration) was 106.1 per minute.
`CN1CCC[C@@H]1CCO[C@](C)(c1ccccc1)c1ccc(Cl)cc1` [clemastine] was tested, and the “Average heart rate after” value (test subject [1]; 1 mg in 20 ml of water) was 102.2 per minute, the change in vivo at 1 mg (test subject [1]; [3]) was -30% and the change in vivo at 1 mg (test subject [1]; [4]) was -37%.
With `CN1C(=O)CC(=O)N(c2ccccc2)c2cc(Cl)ccc21` [clobazam] the “Average heart rate after” value (test subject [1]; 1 mg in 20 ml of water) was 80.8 per minute.
With `CN(C)CCCN1c2ccccc2CCc2ccc(Cl)cc21` [clomipramine] the “Average heart rate after” value (test subject [1]; 1 mg in 20 ml of water) was 117.5 per minute, the change in vivo at 1 mg (test subject [1]; [3]) was 9% and the change in vivo at 1 mg (test subject [1]; [4]) was 0%.
For `CN1CCN(C2=Nc3ccccc3Sc3ccc(Cl)cc32)CC1` [clothiapine], the “Average heart rate after” value (test subject [1]; 1 mg in 20 ml of water) was 86.4 per minute, the change in vivo at 1 mg (test subject [1]; [3]) was -49% and the change in vivo at 1 mg (test subject [1]; [4]) was -51%.
For `COc1ccc2c3c1O[C@H]1[C@@H](O)C=C[C@H]4[C@@H](C2)N(C)CC[C@@]341` [codeine], the “Average heart rate after” value (test subject [1]; 0.2 mg in 20 ml of water) was 98.8 per minute.
For `CN1CCC(=C2c3ccccc3C=Cc3ccccc32)CC1` [cyproheptadine], the “Average heart rate after” value (test subject [1]; 0.2 mg in 20 ml of water) was 81.6 per minute, the change in vivo at 0.2 mg (test subject [1]; Homo sapiens, 10 min, 0.2 mg in 20 ml of water, 10-minute test at 125 W, from change in humidity, read-out: Heat production (deviation from the average of all the tests)) was -55% and the change in vivo at 0.2 mg (test subject [1]; Homo sapiens, 10 min, 0.2 mg in 20 ml of water, 10-minute test at 125 W, read-out: Change in the oxygen demand) was -52%.
With `COc1ccc2c(c1)[C@]13CCCC[C@@H]1[C@H](C2)N(C)CC3` [dextromethorphan] the “Average heart rate after” value (test subject [1]; 0.2 mg in 20 ml of water) was 89.2 per minute.
For `CN1C(=O)CN=C(c2ccccc2)c2cc(Cl)ccc21` [diazepam], the “Average heart rate after” value (test subject [1]; 1 mg in 20 ml of water) was 81.0 per minute.
With `CN(C)CCN1C(=O)c2ccccc2N(C)c2ccccc21` [dibenzepin] the “Average heart rate after” value (test subject [1]; 1 mg in 20 ml of water) was 83.6 per minute, the change in vivo at 1 mg (test subject [1]; [3]) was -41% and the change in vivo at 1 mg (test subject [1]; [4]) was -33%.
With `CN(C)CCOC(C)(c1ccccc1)c1ccccn1` (stereo not drawn) [doxylamine] the “Average heart rate after” value (test subject [1]; 4 mg in 20 ml of water) was 109.5 per minute, the change in vivo at 4 mg (test subject [1]; Homo sapiens, 10 min, 4 mg in 20 ml of water, 10-minute test at 125 W, from change in humidity, read-out: Heat production (deviation from the average of all the tests)) was 0% and the change in vivo at 4 mg (test subject [1]; Homo sapiens, 10 min, 4 mg in 20 ml of water, 10-minute test at 125 W, read-out: Change in the oxygen demand) was -6%.
`CN1C(=O)CN=C(c2ccccc2F)c2cc([N+](=O)[O-])ccc21` [flunitrazepam] was tested, and the “Average heart rate after” value (test subject [1]; 1 mg in 20 ml of water) was 90.1 per minute.
For `COc1ccc(Cl)cc1C(=O)NCCc1ccc(S(=O)(=O)NC(=O)NC2CCCCC2)cc1` [glibenclamide], the “Effect on heat production (change from control test without test substances)” value (test subject [2]; 2.5 mg of glibenclamide) was “+400 kJ” and the “Effect on oxygen demand (change from control test without test substances)” value (test subject [2]; 2.5 mg of glibenclamide) was “+20 l”.
`CN(C)CCCN1c2ccccc2CCc2ccccc21` [imipramine] was tested, and the “Average heart rate after” value (test subject [1]; 1 mg in 20 ml of water) was 110.9 per minute, the change in vivo at 1 mg (test subject [1]; [3]) was 3% and the change in vivo at 1 mg (test subject [1]; [4]) was -2%.
`Cc1ncc2n1-c1ccc(Cl)cc1C(c1ccccc1F)=NC2` [midazolam] was tested, and the “Average heart rate after” value (test subject [1]; 1 mg in 20 ml of water) was 83.4 per minute.
With `O=C1CN=C(c2ccccc2)c2cc([N+](=O)[O-])ccc2N1` [nitrazepam] the “Average heart rate after” value (test subject [1]; 1 mg in 20 ml of water) was 119.8 per minute.
In the case of `OCCN1CCN(CCCN2c3ccccc3C=Cc3ccccc32)CC1` [opipramol], the “Average heart rate after” value (test subject [1]; 1 mg in 20 ml of water) is reported as 112.0 per minute, the change in vivo at 1 mg (test subject [1]; [3]) is reported as 1% and the change in vivo at 1 mg (test subject [1]; [4]) is reported as -5%.
For `O=C1Nc2ccc(Cl)cc2C(c2ccccc2)=NC1O` (stereo not drawn) [oxazepam], the “Average heart rate after” value (test subject [1]; 1 mg in 20 ml of water) was 116.5 per minute.
With `OC[C@H]1O[C@@](CO)(O[C@H]2O[C@H](CO)[C@@H](O)[C@H](O)[C@H]2O)[C@@H](O)[C@@H]1O` [sucrose] the “Effect on heat production (change from control test without test substances)” value (test subject [2]; 5 g of sucrose) was “+380 kJ” and the “Effect on oxygen demand (change from control test without test substances)” value (test subject [2]; 5 g of sucrose) was “+19 l”.
In the case of `CSc1ccc2c(c1)N(CCC1CCCCN1C)c1ccccc1S2` (stereo not drawn) [thioridazine], the “Average heart rate after” value (test subject [1]; 1 mg in 20 ml of water) is reported as 104.9 per minute, the change in vivo at 1 mg (test subject [1]; [3]) is reported as -26% and the change in vivo at 1 mg (test subject [1]; [4]) is reported as -31%.
`CC(CN(C)C)CN1c2ccccc2CCc2ccccc21` (stereo not drawn) [trimipramine] was tested, and the “Average heart rate after” value (test subject [1]; 1 mg in 20 ml of water) was 109.8 per minute and the change in vivo at 1 mg (test subject [1]; [3]) was 2%.
With `CN1CCN(C(=O)OC2c3nccnc3C(=O)N2c2ccc(Cl)cn2)CC1` (stereo not drawn) [zopiclone] the “Average heart rate after” value (test subject [1]; 1 mg in 20 ml of water) was 91.8 per minute.
With H-Arg-Asp-OH the “Effect on heat production (change from control test without test substances)” value (test subject [2]; 100 mg of H-Arg-Asp-OH) was “+260 kJ” and the “Effect on oxygen demand (change from control test without test substances)” value (test subject [2]; 100 mg of H-Arg-Asp-OH) was “+13 l”.

— patent US6703371B1, “Preparations for reducing oxygen consumption during physical efforts” (priority 1999, dated 2004)
